From patent publication US6936585B2, “Corticotropin releasing factor 2 receptor agonists” (priority 2002, dated 2005)

Experiments:
CRF2R = target: T1, CRF2R (Homo sapiens, UniProt Q13324); assay: CRF2R agonist activation (EC50 / Emax), called comparative CRF binding; format: cell-based; conditions: for Emax: read-out: CRF2R Emax
T1 sequence (Q13324 1-411): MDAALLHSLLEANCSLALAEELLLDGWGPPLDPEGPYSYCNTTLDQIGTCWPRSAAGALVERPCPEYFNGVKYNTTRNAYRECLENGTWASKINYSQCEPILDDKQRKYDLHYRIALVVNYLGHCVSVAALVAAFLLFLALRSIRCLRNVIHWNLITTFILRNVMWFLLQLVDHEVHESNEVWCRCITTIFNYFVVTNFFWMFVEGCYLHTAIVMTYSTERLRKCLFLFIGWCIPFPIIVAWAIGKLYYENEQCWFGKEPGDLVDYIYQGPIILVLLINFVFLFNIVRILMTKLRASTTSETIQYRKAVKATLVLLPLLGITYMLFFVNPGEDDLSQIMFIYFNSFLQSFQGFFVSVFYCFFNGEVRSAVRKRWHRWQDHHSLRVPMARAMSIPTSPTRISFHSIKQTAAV
How it was run: (§1)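 Agonism at each human CRF receptor subtype is inferred from increased cAMP relative to vehicle, using cells expressing that subtype and either lysate cAMP measurement or a cAMP response element reporter.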

CRF1R = target: T2, CRF1R (Homo sapiens, UniProt P34998); assay: CRF1R agonist activation (EC50 / Emax), called comparative CRF binding; format: cell-based; conditions: for Emax: read-out: CRF1R Emax; for EC50: CRF1R EC50
T2 sequence (P34998 24-415): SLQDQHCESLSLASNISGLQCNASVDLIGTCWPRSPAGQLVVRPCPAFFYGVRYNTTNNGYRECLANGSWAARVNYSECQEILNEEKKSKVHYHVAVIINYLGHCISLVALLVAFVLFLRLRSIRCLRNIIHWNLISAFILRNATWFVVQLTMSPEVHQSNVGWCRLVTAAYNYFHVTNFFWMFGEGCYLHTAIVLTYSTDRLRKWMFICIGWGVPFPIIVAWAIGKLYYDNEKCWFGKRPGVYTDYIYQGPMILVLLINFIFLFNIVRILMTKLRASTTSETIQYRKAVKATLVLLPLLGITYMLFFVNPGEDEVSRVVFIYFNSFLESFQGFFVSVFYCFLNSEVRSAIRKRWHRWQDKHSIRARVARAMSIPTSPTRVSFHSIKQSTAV
How it was run: as §1

Question: Which results are given for `CC[C@H](C)[C@H](NC(=O)[C@@H](NC(=O)[C@H](C)NC(=O)[C@H](CC(C)C)NC(=O)[C@H](CC(C)C)NC(=O)[C@H](CC(C)C)NC(=O)[C@H](C)NC(=O)[C@H](CC(N)=O)NC(=O)[C@H](CC(N)=O)NC(=O)[C@H](C)NC(=O)[C@H](C)NC(=O)[C@H](CCC(N)=O)NC(=O)[C@H](CCC(N)=O)NC(=O)[C@H](CCCCN)NC(=O)[C@H](CCC(=O)O)NC(=O)[C@H](CCCCN)NC(=O)[C@H](CCC(=O)O)NC(=O)[C@H](CCC(N)=O)NC(=O)[C@H](CCCCN)NC(=O)[C@H](CCC(=O)O)NC(=O)[C@@H](NC(=O)[C@H](CCC(=O)O)NC(=O)[C@@H](NC(=O)[C@H](CC(C)C)NC(=O)[C@H](CCCCN)NC(=O)[C@H](CCCNC(=N)N)NC(=O)[C@H](CC(C)C)NC(=O)[C@H](CC(C)C)NC(=O)[C@H](CCC(N)=O)NC(=O)[C@H](Cc1ccccc1)NC(=O)[C@@H]1CCCN1C(=O)[C@H](CC(C)C)NC(=O)[C@H](CC(=O)O)NC(=O)[C@@H](NC(=O)[C@H](CO)NC(=O)[C@@H](NC(=O)[C@@H]1CCCN1C(=O)[C@@H]1CCCN1C(=O)CNC(=O)[C@@H]1CCC(=O)N1)[C@@H](C)CC)[C@@H](C)CC)[C@@H](C)CC)[C@@H](C)CC)[C@@H](C)O)C(N)=O` [compound 357]?
Answer: Emax (CRF2R): 100%; Emax (CRF1R): 100%

Question: What does the source list for `CC[C@H](C)[C@H](NC(=O)[C@H](CC(N)=O)NC(=O)[C@H](C)NC(=O)[C@H](CC(C)C)NC(=O)[C@H](CC(C)C)NC(=O)[C@H](CC(N)=O)NC(=O)[C@H](C)NC(=O)[C@H](CC(N)=O)NC(=O)[C@H](CC(N)=O)NC(=O)[C@H](C)NC(=O)[C@H](C)NC(=O)[C@H](CCC(N)=O)NC(=O)[C@H](CCC(N)=O)NC(=O)[C@H](CCCCN)NC(=O)[C@H](CCC(=O)O)NC(=O)[C@H](CCCCN)NC(=O)[C@H](CCC(=O)O)NC(=O)[C@H](CCC(N)=O)NC(=O)[C@H](CCCCN)NC(=O)[C@H](CCC(=O)O)NC(=O)[C@@H](NC(=O)[C@H](CCC(=O)O)NC(=O)[C@@H](NC(=O)[C@@H](NC(=O)[C@H](CCCCN)NC(=O)[C@H](CCCNC(=N)N)NC(=O)[C@H](CC(C)C)NC(=O)[C@H](CC(C)C)NC(=O)[C@H](CCC(N)=O)NC(=O)[C@H](Cc1ccccc1)NC(=O)[C@@H]1CCCN1C(=O)[C@H](CC(C)C)NC(=O)[C@H](CC(=O)O)NC(=O)[C@@H](NC(=O)[C@H](CO)NC(=O)[C@@H](NC(=O)[C@@H]1CCCN1C(=O)[C@@H]1CCCN1C(=O)CNC(=O)[C@@H]1CCC(=O)N1)[C@@H](C)CC)[C@@H](C)CC)C(C)C)[C@@H](C)CC)[C@@H](C)CC)C(N)=O` [compound 275]?
Answer: Emax (CRF2R): 100%; Emax (CRF1R): 38.3%

Question: What does the source list for `CC[C@H](C)[C@H](NC(=O)[C@@H](NC(=O)[C@H](CC(=O)O)NC(=O)[C@H](CC(C)C)NC(=O)[C@H](CC(C)C)NC(=O)[C@H](CC(C)C)NC(=O)[C@H](CCCNC(=N)N)NC(=O)[C@H](CC(N)=O)NC(=O)[C@H](CC(N)=O)NC(=O)[C@H](C)NC(=O)[C@H](C)NC(=O)[C@H](CCC(N)=O)NC(=O)[C@H](CCC(N)=O)NC(=O)[C@H](CCCCN)NC(=O)[C@H](CCC(=O)O)NC(=O)[C@H](CCCCN)NC(=O)[C@H](CCC(=O)O)NC(=O)[C@H](CCC(N)=O)NC(=O)[C@H](CCCCN)NC(=O)[C@H](CCC(=O)O)NC(=O)[C@@H](NC(=O)[C@H](CCC(=O)O)NC(=O)[C@@H](NC(=O)[C@H](CCSC)NC(=O)[C@H](CCCCN)NC(=O)[C@H](CCCNC(=N)N)NC(=O)[C@H](CC(C)C)NC(=O)[C@H](CC(C)C)NC(=O)[C@H](Cc1c[nH]cn1)NC(=O)[C@@H](NC(=O)[C@@H]1CCCN1C(=O)[C@H](CC(C)C)NC(=O)[C@H](CC(=O)O)NC(=O)[C@@H](NC(=O)[C@H](CO)NC(=O)[C@@H](NC(=O)[C@@H]1CCCN1C(=O)[C@@H]1CCCN1C(=O)CNC(=O)[C@@H]1CCC(=O)N1)[C@@H](C)CC)[C@@H](C)CC)[C@@H](C)O)[C@@H](C)CC)[C@@H](C)CC)[C@@H](C)O)C(N)=O` [compound 74]?
Answer: EC50 (CRF2R): 0.055 µM; Emax (CRF2R): 100%; EC50 (CRF1R): > 0.1 µM; Emax (CRF1R): 7%

Question: `CC[C@H](C)[C@H](NC(=O)[C@@H](NC(=O)[C@H](C)NC(=O)[C@H](CC(C)C)NC(=O)[C@H](CC(C)C)NC(=O)[C@H](CC(C)C)NC(=O)[C@H](C)NC(=O)[C@H](CC(N)=O)NC(=O)[C@H](CC(N)=O)NC(=O)[C@H](C)NC(=O)[C@H](C)NC(=O)[C@H](CCC(N)=O)NC(=O)[C@H](CCC(N)=O)NC(=O)[C@H](CCCCN)NC(=O)[C@H](CCC(=O)O)NC(=O)[C@H](CCCCN)NC(=O)[C@H](CCC(=O)O)NC(=O)[C@H](CCC(N)=O)NC(=O)[C@H](CCCCN)NC(=O)[C@H](CCC(=O)O)NC(=O)[C@@H](NC(=O)[C@H](CCC(=O)O)NC(=O)[C@@H](NC(=O)[C@@H](NC(=O)[C@H](CCCCN)NC(=O)[C@H](CCCNC(=N)N)NC(=O)[C@H](CC(C)C)NC(=O)[C@H](CC(C)C)NC(=O)[C@H](CCC(N)=O)NC(=O)[C@H](Cc1ccccc1)NC(=O)[C@@H]1CCCN1C(=O)[C@H](CC(C)C)NC(=O)[C@H](CC(=O)O)NC(=O)[C@@H](NC(=O)[C@H](CO)NC(=O)[C@@H](NC(=O)[C@@H]1CCCN1C(=O)[C@@H]1CCCN1C(=O)CNC(=O)[C@@H]1CCC(=O)N1)[C@@H](C)CC)[C@@H](C)CC)[C@@H](C)CC)[C@@H](C)CC)[C@@H](C)CC)[C@@H](C)O)C(N)=O` [compound 362] was tested. Which EC50 (CRF2R) did it give?
Answer: The EC50 was 0.00439 µM.

Question: What about the Emax (CRF2R) of the same molecule?
Answer: Its Emax is 100%.

Question: And the EC50 (CRF1R)?
Answer: The EC50 was 0.386 µM.

Question: And the Emax (CRF1R)?
Answer: Its Emax is 100%.

Question: Which Emax (CRF2R) does the source give for `CC[C@H](C)[C@H](NC(=O)[C@@H](NC(=O)[C@H](CC(=O)O)NC(=O)[C@H](CC(C)C)NC(=O)[C@H](CC(C)C)NC(=O)[C@H](CC(C)C)NC(=O)[C@H](CCCNC(=N)N)NC(=O)[C@H](CC(N)=O)NC(=O)[C@H](CC(N)=O)NC(=O)[C@H](C)NC(=O)[C@H](C)NC(=O)[C@H](CCC(N)=O)NC(=O)[C@H](CCC(N)=O)NC(=O)[C@H](CCCCN)NC(=O)[C@H](CCC(=O)O)NC(=O)[C@H](CCCCN)NC(=O)[C@H](CCC(=O)O)NC(=O)[C@H](CCC(N)=O)NC(=O)[C@H](CCCCN)NC(=O)[C@H](CCC(=O)O)NC(=O)[C@@H](NC(=O)[C@H](CCC(=O)O)NC(=O)[C@@H](NC(=O)[C@H](CCSC)NC(=O)[C@H](CCCCN)NC(=O)[C@H](CCCNC(=N)N)NC(=O)[C@H](CC(C)C)NC(=O)[C@H](CC(C)C)NC(=O)[C@H](CC(=O)O)NC(=O)[C@@H](NC(=O)[C@@H]1CCCN1C(=O)[C@H](CC(C)C)NC(=O)[C@H](CC(=O)O)NC(=O)[C@@H](NC(=O)[C@H](CO)NC(=O)[C@@H](NC(=O)[C@@H]1CCCN1C(=O)[C@@H]1CCCN1C(=O)CNC(=O)[C@@H]1CCC(=O)N1)[C@@H](C)CC)[C@@H](C)CC)[C@@H](C)O)[C@@H](C)CC)[C@@H](C)CC)[C@@H](C)O)C(N)=O` [compound 49] here?
Answer: Its Emax is 37%.

Question: What about the Emax (CRF1R) of the same molecule?
Answer: The Emax was 15%.
